Test results from PubChem BioAssay AID1519 (National Center for Advancing Translational Sciences (NCATS), 2009).
The list shows a part of the results, in another mix than the full data. Results filed as inconclusive are left out. The source made the active and inactive calls. Calls come from the whole dose curve.

Assay: qHTS Assay for Lipid Storage Modulators
Conditions: Drosophila S3 cells, BODIPY lipid droplet/cell ratio, laser cytometry, cells loaded with oleic acid; at 25.7 µM (top of the series)
% is set by controls: 0 for no effect and ±100 for the full control effect.

Q: For `NC(=O)Nc1ccc([As](=O)(O)O)cc1`, which activity change, negative = inhibition is on record?
A: inactive: -2.62%
